Env fusion inh: inhibitors of HIV Env-mediated cell fusion | HeLa-JRFL Env/CEM21 cell fusion, luciferase | inhibition, % at 12.3 µM | 360,000 compounds, 1.1% hits;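 active = mean replicate inhibition score of at least 50 and every replicate individually at or above 50; inconclusive = only one of the two criteria met; inactive = mean below 50 and not all replicates reaching 50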
UUG fidelity: modulators of yeast start codon fidelity, primary screen, whole organism, S. cerevisiae, single point, plate reader. S. cerevisiae UUG-firefly luciferase reporter, luminescence/redox ratio. activity score, % at 18.7 µM. actives 0.13% (n = 350,000);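 active = replicate mean at a twofold rise or more, about +100% in these data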;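 note: firefly luciferase made from a UUG start codon reports start codon fidelity; reporter light over untreated wells divided by growth signal over untreated wells; some hits fall short of that in this replicate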
FN deposit inh: fibronectin deposition inhibition; inhibition, % at 12.6 µM; AH1F fibroblasts, Alexa488-fibronectin deposition fluorescence, overnight; 350,000 compounds, 0.086% hits;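 active = mean inhibition across replicates of 30% or more, regardless of how many single replicates reach that level; inconclusive = mean under 30% yet at least half of replicates reach 30%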
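Material: AH1F fibroblast monolayer depositing Alexa488-labelled fibronectin into matrix / Amount: 10000 AH1F cells per well / Signal: fluorescence 485/525 nm / Medium: DMEM, 2% serum / Compound: single dose, pinned / Incubation: 1 h cell adhesion before compound, then overnight fibronectin incubation / Reagent: Alexa488-FN, 24 nM final / Read-out: inhibition of fibronectin deposition signal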
miR122 inh: miR-122 inhibition in Huh7 cells. 340,000 compounds, 0.3% hits. Huh7 miR-122 Renilla luciferase sensor, 48 h; neutral wells = 0, positive control = 100. activation (reporter increase), % at 12.5 µM;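 active = mean replicate activation score at least 90 and every replicate individually at or above 90; inconclusive = only one of the two criteria met; inactive = neither criterion met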;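 note: higher luciferase means less miR-122 activity so hits act as miR-122 inhibitors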
PGC1a acetyl inh: modulators of PGC1a acetylation. U2OS PGC1a acetylation, AlphaScreen anti-acetyl-lysine; with virally co-expressed GCN5 acetyltransferase. inhibition, % at 15.6 µM. 350,000 compounds, 0.17% hits;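 active = every replicate shows inhibition of at least 40%; inconclusive = mean inhibition at least 40% but some replicate below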
Cneo AK release: causes C. neoformans cell lysis; adenylate kinase release luminescence, 4 h; normalised: neutral wells 0, clomiphene wells 100; lysis activity, % at 15 µM; 360,000 compounds, 0.2% hits; AID 651654;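 active = mean lysis activity across replicates of at least 80%, whatever share of replicates individually reach that level; inactive = mean lysis activity below 80%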
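Material – Cryptococcus neoformans yeast cells · Quantity – 5 × 10^6 yeast cells/mL · Buffer or medium – YPD medium · Compound – single dose · Timing – 4 h static compound exposure, 37 °C, read 1 h post-reagent · Signal – adenylate kinase release luminescence · Read-out basis – lysis from increased AK signal · Benchmarks – Clomiphene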
Numbers stand for hits; i = inactive; ? = inconclusive; nt = no result. Only some compounds are listed: those with a hit (about 1.5% of all), similar ones and a draw of the others.

SMILES	Env fusion inh	UUG fidelity	FN deposit inh	miR122 inh	PGC1a acetyl inh	Cneo AK release
CCCN(CC(=O)Nc1ccccc1OC)C(=O)c1cnc(Cl)c(Cl)c1	i	i	i	nt	nt	i
COc1ccc(CCNC(=O)COC(=O)Cn2cnc3ccccc3c2=O)cc1	i	i	i	186	i	i
CCCCC1=CC2=CC(=O)C(C)(OC(=O)CC)C(=O)C2=CN1Cc1ccc(OC)cc1 (stereo not given)	i	i	i	i	i	i
CC(=O)c1c(C)[nH]c(C(=O)OCC(=O)Nc2ccc(Cl)c(S(=O)(=O)N(C)C)c2)c1C	79	nt	i	i	i	nt
CC(=O)c1c(C)[nH]c(C(=O)Nc2ccc(Cl)c(S(=O)(=O)N(C)C)c2)c1C	i	nt	i	nt	nt	nt
Cc1ccc2c(c1)-c1c(ssc1=S)C(C)(C)N2C(=O)c1ccco1	57	i	i	i	i	i
CCCCOc1ccc(/C=C/C(=O)OCC(=O)N2CC(=O)Nc3ccccc32)cc1OCC	61	nt	i	nt	nt	nt
COc1ccccc1N(C(C)=O)C1=C(Cl)C(=O)c2ccccc2C1=O	i	i	42	i	i	i
COc1ccccc1N(C(=O)CCl)c1cn(C(C)=O)c2ccccc12	i	i	i	i	nt	i
NC(=O)c1ccccc1OCC(=O)Nc1ccc2c(c1)CCC2	i	i	i	i	i	i
COc1ccc(NC(=O)CCC(=O)c2cccs2)cc1S(=O)(=O)Nc1ccc(Cl)cc1	i	nt	i	322	nt	nt
COc1ccccc1NS(=O)(=O)c1cc(N/C(=N/S(=O)(=O)c2ccccc2)c2ccc(F)cc2)ccc1Cl	i	i	i	117	i	i
CCOc1ccc(NS(=O)(=O)c2cc(NC(=O)CCC(=O)c3cccs3)ccc2Cl)cc1	i	nt	i	nt	nt	nt
COc1ccc(NC(=O)CCS(=O)(=O)c2ccccc2Cl)cc1S(=O)(=O)Nc1ccc(Cl)cc1	i	nt	i	nt	nt	nt
COc1ccccc1NS(=O)(=O)c1cc(NC(=O)CCC(=O)c2cccs2)ccc1Cl	nt	i	i	108	nt	i
O=C(NCc1ccco1)C(=O)NCc1ccccc1Cl	i	i	i	i	nt	i
CCOc1cc(-c2c(C#N)c(=O)[nH]c3c2c(C)nn3-c2ccc(F)cc2)ccc1O	57	i	i	i	nt	i
CC1(C)CC(=O)C2=C(C1)NC1=C(C(=O)c3ccccc31)C2c1ccccc1 (stereo not given)	i	nt	i	nt	nt	nt
Cc1nc2[nH]c(=O)c3c(n2n1)NC1=C(C(=O)CC(C)(C)C1)C3c1ccccc1 (stereo not given)	i	i	i	i	84	i
COc1ccc(NC(=O)CC2C(=O)N(C)C(=S)N2Cc2ccco2)cc1 (stereo not given)	i	i	i	i	i	i
COc1cccc(Nc2nc(C(N)CCc3ccccc3)cs2)n1 (stereo not given)	70	i	i	i	i	i
NC(Cc1ccc(C(F)(F)F)cc1)c1csc(NC(=O)Nc2ccccc2Cc2ccccc2)n1 (stereo not given)	82	i	i	nt	i	i
NC(CCc1ccccc1)c1csc(NC(=O)Nc2ccccc2Oc2ccccc2)n1 (stereo not given)	90	i	i	nt	i	i
O=C(O)/C(=C\c1cn(-c2ccccc2)nc1-c1cccnc1)NC(=O)c1ccccc1	i	i	i	i	i	i
CC1(C)CC=C(NNC(=O)c2cccnc2)C(=O)C1	i	i	i	i	i	i
SMILES	Env fusion inh	UUG fidelity	FN deposit inh	miR122 inh	PGC1a acetyl inh	Cneo AK release
Cc1ccc(N2C(=O)C3C=NNC3C2=O)cc1 (stereo not given)	i	nt	i	i	i	nt
Nc1c(C(=O)NCc2ccco2)nnn1Cc1ccccc1	i	i	30	i	i	i
CC[C@@]1(C(=O)OC)N[C@H](CN(C)C(=O)c2ccc(C(C)(C)C)cc2)[C@@H]2C(=O)N(Cc3ccccc3)C(=O)[C@@H]21	79	i	i	nt	nt	i
CCN(C[C@H]1N[C@@](C)(C(=O)OC)[C@H]2C(=O)N(Cc3ccccc3)C(=O)[C@@H]12)C(=O)Nc1ccc(Cl)cc1	64	i	i	nt	nt	i
CC[C@@]1(C(=O)OC)N[C@H](CN(C)C(=O)Nc2ccccc2)[C@@H]2C(=O)N(Cc3ccccc3)C(=O)[C@@H]21	60	i	i	nt	nt	i
CCN(C[C@H]1N[C@@](Cc2ccccc2)(C(=O)OC)[C@H]2C(=O)N(Cc3ccccc3)C(=O)[C@@H]12)S(=O)(=O)c1ccc(OC)cc1	i	i	i	i	i	i
CCN(C[C@H]1N[C@@](CC)(C(=O)OC)[C@H]2C(=O)N(Cc3ccccc3)C(=O)[C@@H]12)S(=O)(=O)c1ccc(OC)cc1	78	i	i	i	i	i
c1ccc(C2=Nn3c(nnc3-c3ccco3)SC2)cc1	i	nt	i	nt	nt	nt
CN(C)c1ccc(CNC(=O)C2(C)Cc3c(-c4cccc(C(N)=O)c4)ccnc3O2)cc1 (stereo not given)	i	i	i	i	nt	i
COC(=O)[C@]1(Cc2ccccc2)N[C@H](CN(C)C(=O)Nc2ccc(C(F)(F)F)cc2)[C@@H]2C(=O)N(Cc3ccccc3)C(=O)[C@@H]21	i	i	nt	i	i	i
CCN(C[C@H]1N[C@@](CC)(C(=O)OC)[C@H]2C(=O)N(Cc3ccccc3)C(=O)[C@@H]12)C(=O)c1ccc(C(C)(C)C)cc1	?	i	i	nt	nt	i
CCN(C[C@H]1N[C@@](C)(C(=O)OC)[C@H]2C(=O)N(Cc3ccccc3)C(=O)[C@@H]12)C(=O)c1ccc(C(C)(C)C)cc1	69	i	i	nt	nt	i
COC(=O)[C@]1(C)N[C@H](CN(C)S(=O)(=O)c2ccc(OC(F)(F)F)cc2)[C@@H]2C(=O)N(Cc3ccccc3)C(=O)[C@@H]21	82	i	i	nt	nt	i
CC[C@@]1(C(=O)OC)N[C@H](CN(C)C(=O)Nc2ccc(C(F)(F)F)cc2)[C@@H]2C(=O)N(Cc3ccccc3)C(=O)[C@@H]21	85	i	nt	i	i	i
CC(C)CCNC(=O)C1CC(=O)N(C2CCCC2)C1 (stereo not given)	i	i	i	i	i	i
CCCCN(CC)CCNc1c(N2CCN(C(=O)OCC)CC2)c(=O)c1=O	i	i	i	i	i	i
CN(c1ccccc1)c1nc(-n2ccnc2)nc(-n2ccnc2)n1	i	i	44	i	i	i
CO[C@H](CN(C)C(=O)Nc1ccc(F)cc1)[C@H](C)CN(Cc1ccccc1Cl)[C@@H](C)CO	nt	nt	i	nt	i	i
CCOc1ccc(-n2c(-c3ccc(OC)cc3)c[n+]3c2CCCCC3)cc1	67	nt	nt	nt	nt	nt
CSCCC(NS(=O)(=O)c1ccc(C)cc1)C(=O)NNC(=O)c1csc(N2CCOCC2)n1 (stereo not given)	i	i	nt	i	nt	i
O=C(c1ccccc1)C(O)(Cc1ccccc1)c1ccccc1 (stereo not given)	i	i	i	168	i	i
CC(O)(C(=O)c1ccccc1)c1ccccc1 (stereo not given)	i	i	i	i	i	i

Assay outcomes as filed in PubChem.
